Experimental findings from patent US10898481B2 (priority 2018, dated 2021) are described below.

By UniProt entry, the sequences of proteins in these tests, tags left out.
UniProt P29275, whole entry: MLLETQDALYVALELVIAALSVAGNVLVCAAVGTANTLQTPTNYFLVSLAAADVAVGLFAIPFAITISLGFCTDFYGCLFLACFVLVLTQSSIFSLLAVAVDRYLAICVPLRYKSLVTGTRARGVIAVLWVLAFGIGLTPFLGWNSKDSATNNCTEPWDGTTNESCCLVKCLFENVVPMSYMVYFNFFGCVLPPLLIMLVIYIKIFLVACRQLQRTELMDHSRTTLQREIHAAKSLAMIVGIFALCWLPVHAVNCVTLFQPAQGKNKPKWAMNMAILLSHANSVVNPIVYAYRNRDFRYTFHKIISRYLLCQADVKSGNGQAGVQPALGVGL
UniProt Q60613, whole entry: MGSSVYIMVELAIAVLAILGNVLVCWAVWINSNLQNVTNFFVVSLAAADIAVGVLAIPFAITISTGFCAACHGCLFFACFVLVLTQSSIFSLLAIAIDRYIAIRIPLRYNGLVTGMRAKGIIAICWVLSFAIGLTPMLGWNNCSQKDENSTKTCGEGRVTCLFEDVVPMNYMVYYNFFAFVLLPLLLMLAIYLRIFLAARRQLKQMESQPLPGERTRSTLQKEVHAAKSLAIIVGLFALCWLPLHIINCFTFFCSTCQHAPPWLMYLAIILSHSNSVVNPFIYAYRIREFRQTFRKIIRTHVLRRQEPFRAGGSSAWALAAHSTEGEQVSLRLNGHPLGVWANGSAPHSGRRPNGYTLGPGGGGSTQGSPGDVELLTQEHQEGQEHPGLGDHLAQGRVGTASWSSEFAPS

The target in one test is hA2b/CHO (Homo sapiens (Human), UniProt P29275). Kind of test: cAMP inhibition assay in hA2b/CHO cells, 10 μM adenosine.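 Also: cells exposed to compound 30 min at 37 °C, then stimulated with adenosine a further 30 min, cAMP read after 60 min at room temperature.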 The conditions noted are these: read-out: cAMP & FLIPR IC50 (nM) hA2b.
A further test concerns the target hA2a/CHO (Homo sapiens (Human), UniProt P29274). Kind of test: cAMP inhibition assay in hA2a/CHO cells, 10 μM adenosine.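 Also: compounds added to cells 30 min ahead of adenosine, then a further 30 min at 37 °C with adenosine before cAMP detection.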 The format is cell-based. The conditions noted are these: read-out: cAMP & FLIPR IC50 (nM) hA2a.
A further test deals with mA2a/CHO (Mus musculus (Mouse), UniProt Q60613). The test is described as follows: cAMP inhibition assay in mA2a/CHO cells, 10 μM adenosine.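 Also: compounds preincubated 30 min at 37 °C before the adenosine challenge, then 30 min further stimulation, readout after 60 min detection reagent incubation at room temperature in 384-well plates.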 The conditions noted are these: read-out: cAMP & FLIPR IC50 (nM) mA2a.

`CN1CCCC1CNC(=O)c1nc(-c2ccc3ncc(Cl)n3c2)c(-c2ncco2)nc1N` (stereo in doubt) [Cmpd. 209, 3-amino-6-[3-chloroimidazo[1,2-a]pyridin-6-yl]-N-[[(2S)-1-methylpyrrolidin-2-yl]methyl]-5-(1,3-oxazol-2-yl)pyrazine-2-carboxamide]: the results for the IC50 at hA2b/CHO, at hA2a/CHO and at mA2a/CHO were 1040 nM, 19 nM and 99 nM, respectively.
